Measured values as given in patent US20180291378A1, “METHODS AND COMPOSITIONS FOR PROMOTING HAIR GROWTH” (THE TRUSTEES OF COLUMBIA UNIVERSITY IN THE CITY OF NEW YORK, priority 2015, published 2018).

What was measured:
[1] = test system: JAK1, JAK2, JAK3, TYK2; details: cited from earlier work
[2] = test system: human fetal scalp skin grafts; assay: Human skin grafting assay on SCID mice; assay type: in vivo; details: daily topical application, ImageJ

C[C@@H]1CCN(C(=O)CC#N)C[C@@H]1N(C)c1ncnc2[nH]ccc12 [tofacitinib]
order of JAK selectivity [1]: JAK1/3>JAK2>TYK2 | ratio of tofacitinib/vehicle intensity of pigmentation [2]: increased with days of treatment
